How the values were obtained:
Assay type in all cases: cell-based
U-937 renal cancer cells = assay: MTT cytotoxicity assay, U-937; conditions: SI = IC50 normal cells (Vero)/IC50 cancer cells;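 also: Six-dose MTT colorimetric assay on cell monolayers, formazan absorbance read at 560 nm with 620 nm background removed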
Procedure: All newly synthetic compounds were tested for cytotoxicity using a six-dose MTT colorimetric assay on three cancer cell lines; namely, breast cancer cells (MDA-MB-231), colorectal adenocarcinoma cells (HT-29) and renal cancer cells (U-937). […] The cytotoxicity of the tested compounds against the selected cancer cell lines was compared to Methotrexate as a reference drug, and the results are shown in Table 1 as a mean of IC50 values. […] However, renal cancer cells (U-937) were discovered to be the least sensitive. […]
(§1) The cell lines were supplied by ATCC (American Type Culture Collection). […] The cytotoxic activities of the examined compounds were quantified by inoculating a 96-well tissue culture plate with 1 X 10^5 cells / mL (100 uL/well) and incubating it at 37°C for 24 hours to develop a complete monolayer sheet. […] The optical density was measured at 560 nm, and the background was subtracted at 620 nm. Finally, the IC50 of the test compound in comparison to the reference was calculated using the GraphPad Prism software. […]
PLK1 inhibitory activity, with Volasertib acting as the reference drug. The BRD4 and PLK1 inhibitory assays were carried out in vitro in accordance with the manufacturer's instructions; BRD4 was assessed using AlphaLISA Bromodomain Assay Protocol, and PLK1 kinase was tested using the ADP-Glo™ Kinase Assay Protocol, […]

[1] = tested on: HT-29 colorectal adenocarcinoma cells; assay: MTT cytotoxicity assay, HT-29; conditions: SI = IC50 normal cells (Vero)/IC50 cancer cells
Procedure: (§2) All newly synthetic compounds were tested for cytotoxicity using a six-dose MTT colorimetric assay on three cancer cell lines; namely, breast cancer cells (MDA-MB-231), colorectal adenocarcinoma cells (HT-29) and renal cancer cells (U-937). […] The cytotoxicity of the tested compounds against the selected cancer cell lines was compared to Methotrexate as a reference drug, and the results are shown in Table 1 as a mean of IC50 values. […] However, renal cancer cells (U-937) were discovered to be the least sensitive.
(§3) Using a six-dose MTT colorimetric assay, all new synthetic compounds were tested for cytotoxicity against three cancer cell lines: MDA-MB-231 breast cancer cells, HT-29 colorectal adenocarcinoma cells, and U-937 renal cancer cells. […]
as §1

[2] = tested on: MDA-MB-231 breast cancer cells; assay: MTT cytotoxicity assay, MDA-MB-231; conditions: SI = IC50 normal cells (Vero)/IC50 cancer cells; ≥5 highly, >2 moderately, <2 non-selective
Procedure: as §2, §3, §1

CN(Cc1cnc2nc(N)nc(N)c2n1)c1ccc(C(=O)N[C@@H](CCC(=O)O)C(=O)O)cc1 [Methotrexate, reference compound]
Selectivity Indices (SI) U-937 (U-937 renal cancer cells): 8.33 | Selectivity Indices (SI) HT-29 [1]: 10.26 | Selectivity Indices (SI) MDA-MB-231 [2]: 3.64

Reference: publication PMC10535864, “Novel Aminopyrimidine-2,4-diones, 2-Thiopyrimidine-4-ones, and 6-Arylpteridines as Dual-Target Inhibitors of BRD4/PLK1: Design, Synthesis, Cytotoxicity, and Computational Studies” (Pharmaceuticals, 2023)
